Data published in article PMC10481938, “Discovery of new Schistosoma mansoni aspartyl protease inhibitors by structure-based virtual screening” (Memórias do Instituto Oswaldo Cruz, 2023).

Chains of the proteins cited; added tags and fusions are not shown. Residues count along the entry.
UniProt P91802, entry or part of it: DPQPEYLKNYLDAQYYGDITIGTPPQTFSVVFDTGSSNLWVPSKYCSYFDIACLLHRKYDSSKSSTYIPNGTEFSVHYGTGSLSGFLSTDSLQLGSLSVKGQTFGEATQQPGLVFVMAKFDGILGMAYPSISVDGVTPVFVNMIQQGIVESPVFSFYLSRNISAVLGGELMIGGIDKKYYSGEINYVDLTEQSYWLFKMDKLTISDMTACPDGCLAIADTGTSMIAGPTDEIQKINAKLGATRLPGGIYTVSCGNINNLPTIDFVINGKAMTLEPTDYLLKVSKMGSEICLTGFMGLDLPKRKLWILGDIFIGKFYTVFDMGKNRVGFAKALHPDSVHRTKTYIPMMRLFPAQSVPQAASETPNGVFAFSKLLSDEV
UniProt P00791, 60-385: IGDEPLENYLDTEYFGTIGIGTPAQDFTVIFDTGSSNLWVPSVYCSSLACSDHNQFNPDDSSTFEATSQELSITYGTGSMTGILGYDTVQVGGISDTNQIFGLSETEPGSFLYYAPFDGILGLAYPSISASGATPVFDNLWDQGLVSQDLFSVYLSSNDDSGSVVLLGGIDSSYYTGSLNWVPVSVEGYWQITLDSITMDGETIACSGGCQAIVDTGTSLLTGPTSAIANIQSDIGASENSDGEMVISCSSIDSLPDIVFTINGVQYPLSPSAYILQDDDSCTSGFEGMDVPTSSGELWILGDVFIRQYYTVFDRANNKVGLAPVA

What was measured:
[1] = molecular target: recombinant Schistosoma mansoni cathepsin D-like aspartyl protease 1 (SmCD1) (Schistosoma mansoni, UniProt P91802); test: SmCD1 enzymatic assay (FRET substrate Abz-AIAF/FSRQ-EDDnp); assay type: biochemical; settings: BEI = pIC50/MW(kDa), from SmCD1 IC50
Procedure: SmCD1 cloning, expression and purification - Expression of the recombinant enzyme was previously performed by our group[14] by transfection of the vector with recombinant proSmCD1 gene (proSmCD1r) into culture bottles containing human embryonic kidney (HEK293) cells. After an incubation period of three to five days, the culture medium of the HEK293 cells was collected, filtered, and used for the purification of the recombinant protein. A HisTrap FF column in-tandem with a HiLoad 16/60 Superdex column, connected to an Äkta Xpress system were used for the purification of the protein.
SmCD1 enzymatic assay - Initially, 2.5 μg of SmCD1 was added to a reaction medium containing 50 mM sodium acetate buffer with 50 mM NaCl at pH 3.5. Next, this medium was incubated with either test compounds (10 µM), pepstatin (1 - 500 µM), as a positive control, or DMSO (0,1%), as negative control, for 10 minutes, at 37 °C. After incubation, to start the reaction, 10 μM of the substrate octapeptide fluorescent (FRET) Abz-AIAF/FSRQ-EDDnp (102023-1, GenOne) was added to the medium. The substrate hydrolysis reaction product was continuously detected (λex = 310 nm and λem = 420 nm), using a Flex Station III microplate reader (Molecular Devices), during the initial 10 min of the reaction. […]

porcine pepsin = molecular target: T1, porcine pepsin (Sus scrofa, UniProt P00791); test: Specificity assay toward porcine pepsin; assay type: biochemical; settings: 10 μM of compound; average of triplicate of single experiment, CV% in parentheses
T1 construct: purchased Difco 0151-17 / 215110
Procedure: SmCD1 enzymatic assay - Initially, 2.5 μg of SmCD1 was added to a reaction medium containing 50 mM sodium acetate buffer with 50 mM NaCl at pH 3.5. […] After incubation, to start the reaction, 10 μM of the substrate octapeptide fluorescent (FRET) Abz-AIAF/FSRQ-EDDnp (102023-1, GenOne) was added to the medium. The substrate hydrolysis reaction product was continuously detected (λex = 310 nm and λem = 420 nm), using a Flex Station III microplate reader (Molecular Devices), during the initial 10 min of the reaction.
Specificity assays toward mammalian proteases - For recombinant BtCD and porcine pepsin, the same protocol described above for SmCD1 was followed, except for 10 μg of BtCD or 5 μg of pepsin were added.
The IC50 values were determined by fitting SmCD1 activity data into the 4-parameter logistic equation.

Q: How did the “Binding efficiency index (BEI)” value [1] turn out when pepstatin A [reference compound] was run?
A: 11.9

Q: And the “Enzymatic activity inhibition (%) Pepsin” value (porcine pepsin)?
A: 94.9 (22) %
